Here are results for one compound from article PMC3639963, “A New Class of Small Molecule Inhibitor of BMP Signaling” (PLoS ONE, 2013).

Sequences of proteins named here, by UniProt entry; tags and fusion partners are left off. A change or cut given only in a name is not applied to a line headed by its entry. Residues count along the entry.
UniProt Q04771: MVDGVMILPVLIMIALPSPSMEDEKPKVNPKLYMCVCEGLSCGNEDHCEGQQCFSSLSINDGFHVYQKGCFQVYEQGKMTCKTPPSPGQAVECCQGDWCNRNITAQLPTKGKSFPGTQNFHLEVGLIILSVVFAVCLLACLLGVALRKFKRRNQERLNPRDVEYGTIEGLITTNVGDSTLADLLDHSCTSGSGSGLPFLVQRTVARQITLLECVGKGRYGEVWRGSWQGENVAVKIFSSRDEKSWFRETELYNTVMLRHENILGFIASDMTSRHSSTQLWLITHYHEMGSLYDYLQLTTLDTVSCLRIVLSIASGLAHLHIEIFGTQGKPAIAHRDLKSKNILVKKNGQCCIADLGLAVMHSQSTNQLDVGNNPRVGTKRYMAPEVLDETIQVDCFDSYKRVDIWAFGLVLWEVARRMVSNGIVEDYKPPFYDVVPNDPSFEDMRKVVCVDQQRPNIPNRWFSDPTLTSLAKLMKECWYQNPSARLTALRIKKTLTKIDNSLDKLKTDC
UniProt Q9BYT3: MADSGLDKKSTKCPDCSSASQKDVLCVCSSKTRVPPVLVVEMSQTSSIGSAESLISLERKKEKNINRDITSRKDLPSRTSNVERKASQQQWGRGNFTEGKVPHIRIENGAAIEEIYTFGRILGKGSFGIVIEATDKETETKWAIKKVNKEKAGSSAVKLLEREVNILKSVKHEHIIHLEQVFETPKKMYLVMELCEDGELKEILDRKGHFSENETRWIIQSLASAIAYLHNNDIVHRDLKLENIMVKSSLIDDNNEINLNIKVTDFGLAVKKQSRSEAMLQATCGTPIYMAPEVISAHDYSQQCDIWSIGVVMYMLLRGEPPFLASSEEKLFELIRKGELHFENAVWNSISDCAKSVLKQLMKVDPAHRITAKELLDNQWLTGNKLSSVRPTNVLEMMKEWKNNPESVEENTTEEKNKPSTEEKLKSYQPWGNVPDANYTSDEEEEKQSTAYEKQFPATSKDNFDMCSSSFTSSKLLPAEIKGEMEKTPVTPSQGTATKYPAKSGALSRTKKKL
UniProt Q9UKE5: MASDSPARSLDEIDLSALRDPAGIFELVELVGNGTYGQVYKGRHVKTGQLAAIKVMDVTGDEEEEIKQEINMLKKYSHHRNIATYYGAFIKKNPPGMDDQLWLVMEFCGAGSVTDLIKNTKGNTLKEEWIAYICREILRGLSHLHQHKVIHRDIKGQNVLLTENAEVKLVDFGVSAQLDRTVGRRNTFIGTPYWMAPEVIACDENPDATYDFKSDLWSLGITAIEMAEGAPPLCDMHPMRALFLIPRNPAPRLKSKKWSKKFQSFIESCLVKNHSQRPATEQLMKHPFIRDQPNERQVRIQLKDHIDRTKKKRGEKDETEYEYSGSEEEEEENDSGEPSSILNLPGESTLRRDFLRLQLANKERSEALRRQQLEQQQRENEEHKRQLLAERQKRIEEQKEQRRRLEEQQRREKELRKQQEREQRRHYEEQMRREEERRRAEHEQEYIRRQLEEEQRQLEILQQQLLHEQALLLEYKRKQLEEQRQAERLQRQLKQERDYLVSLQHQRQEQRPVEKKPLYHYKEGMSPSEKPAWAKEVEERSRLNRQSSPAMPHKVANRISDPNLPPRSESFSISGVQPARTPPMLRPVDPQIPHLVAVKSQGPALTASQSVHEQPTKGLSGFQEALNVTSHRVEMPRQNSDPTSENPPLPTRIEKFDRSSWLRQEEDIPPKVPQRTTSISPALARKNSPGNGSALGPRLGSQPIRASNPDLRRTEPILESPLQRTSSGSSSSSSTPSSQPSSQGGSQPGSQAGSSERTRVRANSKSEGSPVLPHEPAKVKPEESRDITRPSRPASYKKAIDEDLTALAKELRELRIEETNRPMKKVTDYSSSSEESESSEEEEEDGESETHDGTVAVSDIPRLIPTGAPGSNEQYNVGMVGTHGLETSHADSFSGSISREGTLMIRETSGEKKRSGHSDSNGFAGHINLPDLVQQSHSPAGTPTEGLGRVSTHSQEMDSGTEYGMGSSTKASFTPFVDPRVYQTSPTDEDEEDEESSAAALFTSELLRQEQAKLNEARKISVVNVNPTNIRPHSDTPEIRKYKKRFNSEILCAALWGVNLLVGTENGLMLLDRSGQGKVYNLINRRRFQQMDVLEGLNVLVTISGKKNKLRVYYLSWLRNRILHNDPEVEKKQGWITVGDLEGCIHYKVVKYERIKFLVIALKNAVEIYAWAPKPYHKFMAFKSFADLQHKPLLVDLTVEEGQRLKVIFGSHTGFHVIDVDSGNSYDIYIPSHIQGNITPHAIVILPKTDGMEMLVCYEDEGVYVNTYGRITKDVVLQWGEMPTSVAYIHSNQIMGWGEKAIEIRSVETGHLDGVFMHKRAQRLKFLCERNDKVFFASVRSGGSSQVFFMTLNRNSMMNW
UniProt O95819: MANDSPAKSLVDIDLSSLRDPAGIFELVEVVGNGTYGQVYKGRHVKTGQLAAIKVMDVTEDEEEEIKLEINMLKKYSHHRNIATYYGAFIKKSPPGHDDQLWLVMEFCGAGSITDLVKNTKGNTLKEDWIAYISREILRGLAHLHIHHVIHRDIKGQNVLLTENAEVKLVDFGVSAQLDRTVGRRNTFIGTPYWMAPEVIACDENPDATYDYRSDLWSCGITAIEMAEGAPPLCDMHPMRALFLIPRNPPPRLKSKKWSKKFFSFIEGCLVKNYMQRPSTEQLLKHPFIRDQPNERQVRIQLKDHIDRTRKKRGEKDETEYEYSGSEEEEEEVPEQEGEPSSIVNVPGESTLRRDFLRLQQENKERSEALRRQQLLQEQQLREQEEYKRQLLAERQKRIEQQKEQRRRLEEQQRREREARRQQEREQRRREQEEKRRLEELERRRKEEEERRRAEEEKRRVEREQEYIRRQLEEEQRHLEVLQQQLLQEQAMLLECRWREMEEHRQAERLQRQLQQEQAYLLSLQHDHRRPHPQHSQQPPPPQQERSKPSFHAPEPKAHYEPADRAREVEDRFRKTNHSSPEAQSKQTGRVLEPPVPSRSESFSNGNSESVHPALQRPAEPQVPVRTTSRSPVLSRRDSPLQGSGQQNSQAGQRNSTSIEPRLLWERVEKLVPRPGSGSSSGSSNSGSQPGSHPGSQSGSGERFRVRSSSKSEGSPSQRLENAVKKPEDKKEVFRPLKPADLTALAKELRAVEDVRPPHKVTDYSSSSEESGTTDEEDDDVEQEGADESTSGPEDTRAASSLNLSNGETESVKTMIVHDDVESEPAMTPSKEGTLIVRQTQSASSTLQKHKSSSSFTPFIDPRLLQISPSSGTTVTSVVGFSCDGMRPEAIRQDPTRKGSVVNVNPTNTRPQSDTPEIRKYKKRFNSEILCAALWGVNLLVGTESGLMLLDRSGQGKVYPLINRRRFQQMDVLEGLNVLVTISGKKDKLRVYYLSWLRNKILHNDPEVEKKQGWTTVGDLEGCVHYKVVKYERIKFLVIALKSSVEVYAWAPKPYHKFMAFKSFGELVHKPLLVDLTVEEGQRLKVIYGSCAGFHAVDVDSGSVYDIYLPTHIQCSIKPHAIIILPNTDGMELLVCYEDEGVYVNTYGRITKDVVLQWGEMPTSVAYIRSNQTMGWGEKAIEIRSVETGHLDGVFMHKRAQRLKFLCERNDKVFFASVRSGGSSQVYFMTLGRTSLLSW
UniProt P07333, 20-972: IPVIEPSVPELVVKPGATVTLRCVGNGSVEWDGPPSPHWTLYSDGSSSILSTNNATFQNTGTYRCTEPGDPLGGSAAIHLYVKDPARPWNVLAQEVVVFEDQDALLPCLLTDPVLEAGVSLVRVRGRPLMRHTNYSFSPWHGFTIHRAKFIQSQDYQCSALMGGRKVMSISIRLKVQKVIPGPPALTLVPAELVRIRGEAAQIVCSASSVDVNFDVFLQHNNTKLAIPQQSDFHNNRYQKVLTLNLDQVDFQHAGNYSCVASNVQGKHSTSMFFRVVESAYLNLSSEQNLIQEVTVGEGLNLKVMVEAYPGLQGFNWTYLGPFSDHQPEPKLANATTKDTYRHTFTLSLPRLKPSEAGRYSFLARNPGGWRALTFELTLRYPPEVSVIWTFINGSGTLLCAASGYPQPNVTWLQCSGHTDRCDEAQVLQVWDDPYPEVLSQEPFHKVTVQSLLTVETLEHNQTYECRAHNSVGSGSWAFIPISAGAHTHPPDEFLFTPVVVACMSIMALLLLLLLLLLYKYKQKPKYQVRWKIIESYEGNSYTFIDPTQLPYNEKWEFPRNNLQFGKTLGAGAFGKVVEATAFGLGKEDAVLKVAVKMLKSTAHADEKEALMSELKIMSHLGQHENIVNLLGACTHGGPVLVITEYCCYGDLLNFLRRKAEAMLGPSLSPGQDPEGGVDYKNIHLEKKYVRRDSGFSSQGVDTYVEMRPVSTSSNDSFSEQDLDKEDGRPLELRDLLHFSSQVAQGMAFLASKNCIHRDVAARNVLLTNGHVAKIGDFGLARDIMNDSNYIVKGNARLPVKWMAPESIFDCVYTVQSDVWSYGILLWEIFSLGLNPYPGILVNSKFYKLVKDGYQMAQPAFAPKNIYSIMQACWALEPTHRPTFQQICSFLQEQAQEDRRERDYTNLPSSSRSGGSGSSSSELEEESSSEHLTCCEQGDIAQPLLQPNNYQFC
UniProt P15056, whole entry: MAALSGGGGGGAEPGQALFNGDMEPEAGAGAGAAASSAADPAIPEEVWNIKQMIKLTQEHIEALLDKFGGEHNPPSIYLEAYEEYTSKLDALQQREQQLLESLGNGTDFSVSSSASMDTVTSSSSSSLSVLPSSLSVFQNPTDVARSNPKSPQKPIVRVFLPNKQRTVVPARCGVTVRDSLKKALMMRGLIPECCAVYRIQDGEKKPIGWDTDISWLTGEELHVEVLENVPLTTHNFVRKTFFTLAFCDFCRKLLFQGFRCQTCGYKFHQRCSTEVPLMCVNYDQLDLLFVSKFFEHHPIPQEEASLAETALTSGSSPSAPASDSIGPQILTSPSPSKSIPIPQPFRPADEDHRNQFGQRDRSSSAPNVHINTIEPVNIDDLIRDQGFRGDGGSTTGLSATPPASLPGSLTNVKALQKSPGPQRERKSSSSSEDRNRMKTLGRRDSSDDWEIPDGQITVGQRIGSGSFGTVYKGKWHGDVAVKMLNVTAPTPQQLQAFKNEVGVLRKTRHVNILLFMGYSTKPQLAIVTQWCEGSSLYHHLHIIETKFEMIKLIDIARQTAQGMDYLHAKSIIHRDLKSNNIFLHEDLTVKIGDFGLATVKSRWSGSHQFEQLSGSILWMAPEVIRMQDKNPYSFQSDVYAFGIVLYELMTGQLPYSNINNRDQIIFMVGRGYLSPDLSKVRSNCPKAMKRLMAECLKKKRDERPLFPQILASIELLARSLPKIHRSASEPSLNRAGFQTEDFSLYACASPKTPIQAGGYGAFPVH
UniProt P36888, 27-993: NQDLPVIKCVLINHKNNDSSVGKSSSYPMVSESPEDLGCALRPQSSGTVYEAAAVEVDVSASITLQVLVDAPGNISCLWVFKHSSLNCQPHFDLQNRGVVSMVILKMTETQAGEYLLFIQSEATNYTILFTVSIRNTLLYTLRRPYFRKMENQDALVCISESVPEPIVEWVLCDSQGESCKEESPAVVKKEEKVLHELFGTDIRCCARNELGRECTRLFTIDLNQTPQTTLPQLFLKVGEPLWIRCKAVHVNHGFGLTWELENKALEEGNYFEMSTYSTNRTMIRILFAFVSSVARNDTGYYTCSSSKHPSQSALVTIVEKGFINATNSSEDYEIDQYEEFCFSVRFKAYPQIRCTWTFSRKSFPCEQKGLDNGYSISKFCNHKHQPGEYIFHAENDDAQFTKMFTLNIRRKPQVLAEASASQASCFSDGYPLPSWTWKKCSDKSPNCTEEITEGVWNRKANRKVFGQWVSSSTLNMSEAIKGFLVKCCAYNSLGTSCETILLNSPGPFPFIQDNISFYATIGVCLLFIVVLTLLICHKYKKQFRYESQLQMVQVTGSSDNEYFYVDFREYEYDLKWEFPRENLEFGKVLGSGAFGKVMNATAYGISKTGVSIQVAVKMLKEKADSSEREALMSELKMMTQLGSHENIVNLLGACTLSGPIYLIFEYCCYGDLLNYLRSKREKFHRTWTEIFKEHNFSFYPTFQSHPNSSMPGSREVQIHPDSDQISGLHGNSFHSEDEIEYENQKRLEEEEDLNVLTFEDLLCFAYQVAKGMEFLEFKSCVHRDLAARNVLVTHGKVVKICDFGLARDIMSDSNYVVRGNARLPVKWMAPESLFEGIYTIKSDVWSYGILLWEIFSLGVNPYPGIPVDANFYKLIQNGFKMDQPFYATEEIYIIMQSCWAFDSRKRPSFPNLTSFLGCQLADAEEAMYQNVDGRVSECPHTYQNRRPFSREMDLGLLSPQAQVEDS

Structures are written as SMILES.

In assay [1] the target is T1, ALK2 (Homo sapiens, UniProt Q04771, Q207D).
T1 construct: purchased Nanosyn (enzymatic panel); SGC in-house recombinant human kinases (DSF panel); Invitrogen (ALK1-6)
T1 sequence (Q04771 201-499 Q207D): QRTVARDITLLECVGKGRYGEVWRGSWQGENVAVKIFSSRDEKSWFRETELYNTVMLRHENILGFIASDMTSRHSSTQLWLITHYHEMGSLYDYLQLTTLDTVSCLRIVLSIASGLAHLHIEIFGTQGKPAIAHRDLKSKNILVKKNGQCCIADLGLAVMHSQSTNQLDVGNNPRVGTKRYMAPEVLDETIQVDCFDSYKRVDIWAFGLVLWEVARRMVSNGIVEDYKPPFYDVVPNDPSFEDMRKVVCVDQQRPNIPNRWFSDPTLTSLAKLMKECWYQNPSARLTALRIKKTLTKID
The assay can be described thus: DSF thermal shift. The assay is classed as binding. The following applies: 10 µM inhibitor; kinase domain 201–499 Q207D; read-out: Tm shift. As for the experimental part:
(§1) Thermal melting experiments were performed using a Real Time PCR machine Mx3005p (Stratagene) with a protein concentration of 1–2 µM and 10 µM inhibitor as described previously, [25]. […] Recombinant human kinases for DSF screening were prepared by SGC using published methods, [36].

The target of assay [2] is T2, BMPRII (Homo sapiens, UniProt Q13873).
T2 construct: purchased Nanosyn (enzymatic panel); SGC in-house recombinant human kinases (DSF panel); Invitrogen (ALK1-6)
T2 sequence (Q13873 27-1038): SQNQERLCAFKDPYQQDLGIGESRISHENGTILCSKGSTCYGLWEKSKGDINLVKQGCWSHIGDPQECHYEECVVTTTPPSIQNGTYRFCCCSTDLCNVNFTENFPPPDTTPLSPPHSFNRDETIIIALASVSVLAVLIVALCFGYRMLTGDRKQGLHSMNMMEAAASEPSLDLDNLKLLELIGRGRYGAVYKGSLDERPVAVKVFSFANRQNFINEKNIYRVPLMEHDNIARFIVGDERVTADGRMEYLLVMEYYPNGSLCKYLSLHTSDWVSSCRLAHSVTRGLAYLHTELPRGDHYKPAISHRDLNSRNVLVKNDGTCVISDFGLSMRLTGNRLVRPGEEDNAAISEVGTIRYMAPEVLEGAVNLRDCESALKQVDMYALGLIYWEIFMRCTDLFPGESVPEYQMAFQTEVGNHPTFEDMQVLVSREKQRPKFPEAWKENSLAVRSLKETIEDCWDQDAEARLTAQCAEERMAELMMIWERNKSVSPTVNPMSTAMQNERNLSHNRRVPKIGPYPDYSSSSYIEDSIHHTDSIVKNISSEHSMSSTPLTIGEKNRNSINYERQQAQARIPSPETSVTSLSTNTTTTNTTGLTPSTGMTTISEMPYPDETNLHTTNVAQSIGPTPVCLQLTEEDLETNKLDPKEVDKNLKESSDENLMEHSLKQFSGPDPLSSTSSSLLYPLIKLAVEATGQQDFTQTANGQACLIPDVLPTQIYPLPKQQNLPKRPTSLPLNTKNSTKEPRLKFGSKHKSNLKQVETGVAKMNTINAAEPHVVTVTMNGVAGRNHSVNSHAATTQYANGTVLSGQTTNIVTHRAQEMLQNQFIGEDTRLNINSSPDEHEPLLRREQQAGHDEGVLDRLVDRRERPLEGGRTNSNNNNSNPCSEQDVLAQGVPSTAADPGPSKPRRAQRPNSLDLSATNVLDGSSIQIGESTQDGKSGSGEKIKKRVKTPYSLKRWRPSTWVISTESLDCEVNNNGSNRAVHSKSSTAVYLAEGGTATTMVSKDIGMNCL
The assay can be described thus: DSF thermal shift. The assay is classed as binding. The following applies: read-out: Tm shift. As to the method: as §1

Assay [3] concerns the target T3, STK33 (Homo sapiens, UniProt Q9BYT3).
T3 construct: purchased Nanosyn (enzymatic panel); SGC in-house recombinant human kinases (DSF panel); Invitrogen (ALK1-6)
The experiment in a line: DSF thermal shift. Format: binding. The following applies: 10 µM inhibitor; read-out: Tm shift. As for the experimental part: as §1

Assay [4] concerns the target T4, ZAK (Homo sapiens, UniProt Q9NYL2).
T4 construct: purchased Nanosyn (enzymatic panel); SGC in-house recombinant human kinases (DSF panel); Invitrogen (ALK1-6)
The experiment in a line: DSF thermal shift. The following applies: read-out: Tm shift. Format: binding. As to the method: as §1

Assay [5] concerns the target T5, ALK5 (Homo sapiens, UniProt P36897).
T5 construct: purchased Nanosyn (enzymatic panel); SGC in-house recombinant human kinases (DSF panel); Invitrogen (ALK1-6)
T5 sequence (P36897 34-503): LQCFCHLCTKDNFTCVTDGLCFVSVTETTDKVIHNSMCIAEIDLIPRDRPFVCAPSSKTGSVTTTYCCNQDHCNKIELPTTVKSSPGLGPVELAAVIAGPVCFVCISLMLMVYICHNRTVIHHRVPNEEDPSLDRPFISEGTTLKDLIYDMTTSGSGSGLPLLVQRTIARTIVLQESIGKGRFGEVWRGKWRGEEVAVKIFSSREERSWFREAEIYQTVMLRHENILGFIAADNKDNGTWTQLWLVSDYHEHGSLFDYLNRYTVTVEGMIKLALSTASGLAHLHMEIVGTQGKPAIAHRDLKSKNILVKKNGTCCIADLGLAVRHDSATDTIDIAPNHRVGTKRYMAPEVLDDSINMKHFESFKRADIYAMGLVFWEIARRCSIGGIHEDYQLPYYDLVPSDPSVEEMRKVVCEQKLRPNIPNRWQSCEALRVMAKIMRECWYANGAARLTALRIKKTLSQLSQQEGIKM
The assay can be described thus: DSF thermal shift. Format: binding. The following applies: 10 µM inhibitor; read-out: Tm shift. As for the experimental part: as §1

Assay [6] has as its target T6, TNIK (Homo sapiens, UniProt Q9UKE5).
T6 construct: purchased Nanosyn (enzymatic panel); SGC in-house recombinant human kinases (DSF panel); Invitrogen (ALK1-6)
The experiment in a line: DSF thermal shift. Format: binding. The note with it: read-out: Tm shift. As to the method:
as §1

Assay [7] deals with T7, MAP4K4 (Homo sapiens, UniProt O95819).
T7 construct: purchased Nanosyn (enzymatic panel); SGC in-house recombinant human kinases (DSF panel); Invitrogen (ALK1-6)
The experiment in a line: Nanosyn kinase profiling. The assay is classed as biochemical. The note with it: read-out: Percentage inhibition. As for the experimental part: (§2) Percentage inhibition was determined for each kinase at both 0.1 µM and 1 µM inhibitor concentration (supplemental Table S2). […]. […]. When visualized on a kinase phylogenetic tree, these were primarily clustered within the receptor tyrosine kinases (TKs) as well as the calmodulin-dependent kinases (CAMKs) (Figure 2C).
(§3) Inhibitor selectivity profiling against 200 human kinases at 0.1 and 1 µM inhibitor concentration was performed by Nanosyn (www.nanosyn.com).

The target of assay [8] is T8, MINK (Homo sapiens, UniProt Q8N4C8).
T8 construct: purchased Nanosyn (enzymatic panel); SGC in-house recombinant human kinases (DSF panel); Invitrogen (ALK1-6)
The assay can be described thus: Nanosyn kinase profiling. Format: biochemical. The following applies: read-out: Percentage inhibition. As to the method:
as §2, §3

Assay [9] deals with T9, FMS (Homo sapiens, UniProt P07333).
T9 construct: purchased Nanosyn (enzymatic panel); SGC in-house recombinant human kinases (DSF panel); Invitrogen (ALK1-6)
The assay can be described thus: Nanosyn kinase profiling. The assay is classed as biochemical. The note with it: read-out: Percentage inhibition. As for the experimental part: as §2, §3

Assay [10] deals with T10, BRAF (Homo sapiens, UniProt P15056).
T10 construct: purchased Nanosyn (enzymatic panel); SGC in-house recombinant human kinases (DSF panel); Invitrogen (ALK1-6)
The experiment in a line: Nanosyn kinase profiling. The assay is classed as biochemical. The following applies: read-out: Percentage inhibition. As for the experimental part: as §2, §3

For assay [11], the target named is T11, FLT3 (Homo sapiens, UniProt P36888).
T11 construct: purchased Nanosyn (enzymatic panel); SGC in-house recombinant human kinases (DSF panel); Invitrogen (ALK1-6)
The experiment in a line: Nanosyn kinase profiling. The note with it: read-out: Percentage inhibition. The assay is classed as biochemical. As for the experimental part: as §2, §3

A word on the inhibition: it is the relative decrease from the control value, in per cent. For `c1ccc2c(-c3cnn4cc(-c5ccc(N6CCNCC6)cc5)cnc34)ccnc2c1` [LDN-193189], the ΔTm at 10 µM in [1] was 14.3 °C; in [2], -0.4 °C; in assay [3], 6.5 °C; in [4] it was 2.7 °C; in [5] it was 12 °C; in assay [6] it was 4.6 °C. For the same compound, the inhibition at 0.1 µM came to 31% in [7]; 26% in assay [8]; 3.7% in assay [9]; 3.5% in assay [10]; 3.4% in [11]. In addition, the inhibition at 1 µM stood at 81% in assay [7]; 71% in assay [8]; 26% in assay [9]; 5.2% in assay [10]; 12% in [11].
